Test: Test of solubilizing ability (turbidity)
Assay type: physicochemical
Conditions: 3 mass % solubilizing agent, 5 mass % ethanol, 25° C.
Description: As the material to be solubilized, five kinds of oil components, namely, vitamin E acetate, trioctanoin, isohexadecane, decamethylcyclopentasiloxane, and perfume were used.
The solubilizing ability was investigated with use of the above-described respective samples. The solubilizing ability was determined by measuring the turbidity at 25° C. with an integration type turbidimeter TR-35 (manufactured by the former Mitsubishi Chemical Corporation, which is presently Dia Instruments Co. Ltd.) and a glass cell (width: 50 mm, depth: 30 mm, height: 50 mm; manufactured by Mitsubishi Chemical Corporation).

[1] = 0.05 mass % material to be solubilized
[2] = 0.1 mass % material to be solubilized

Substance: DL-α-Tocopherol propylene oxide/ethylene oxide addition product [Comparative Example 2]
- Turbidity, Decamethylcyclopentasiloxane [1]: 38.5
- Turbidity, Isohexadecane [1]: 22.6
- Turbidity, Perfume [1]: 15.1
- Turbidity, Trioctanoin [1]: 5.7
- Turbidity, Vitamin E acetate [1]: 10.2
- Turbidity, Decamethylcyclopentasiloxane [2]: 76.2
- Turbidity, Isohexadecane [2]: 67.8
- Turbidity, Perfume [2]: 5.4
- Turbidity, Trioctanoin [2]: 15.1
- Turbidity, Vitamin E acetate [2]: 10.6

Substance: DL-α-Tocopherol ethylene oxide addition product [Comparative Example 1]
- Turbidity, Decamethylcyclopentasiloxane [1]: 53.2
- Turbidity, Isohexadecane [1]: 46.2
- Turbidity, Perfume [1]: 5.8
- Turbidity, Trioctanoin [1]: 6.4
- Turbidity, Vitamin E acetate [1]: 2.0
- Turbidity, Decamethylcyclopentasiloxane [2]: 76.1
- Turbidity, Isohexadecane [2]: 78.9
- Turbidity, Perfume [2]: 6.7
- Turbidity, Trioctanoin [2]: 41.9
- Turbidity, Vitamin E acetate [2]: 5.3
